Test results reported in patent publication US6767890 (COASTSIDE BIO RESOURCES, dated 2004).

Biological target: T1, Interleukin-1α receptor on mouse Swiss/3T3 cells (mouse, UniProt P13504 20-576)
T1 construct: whole, on cells; also called Interleukin-1α (assay target)
T1 sequence (looked up): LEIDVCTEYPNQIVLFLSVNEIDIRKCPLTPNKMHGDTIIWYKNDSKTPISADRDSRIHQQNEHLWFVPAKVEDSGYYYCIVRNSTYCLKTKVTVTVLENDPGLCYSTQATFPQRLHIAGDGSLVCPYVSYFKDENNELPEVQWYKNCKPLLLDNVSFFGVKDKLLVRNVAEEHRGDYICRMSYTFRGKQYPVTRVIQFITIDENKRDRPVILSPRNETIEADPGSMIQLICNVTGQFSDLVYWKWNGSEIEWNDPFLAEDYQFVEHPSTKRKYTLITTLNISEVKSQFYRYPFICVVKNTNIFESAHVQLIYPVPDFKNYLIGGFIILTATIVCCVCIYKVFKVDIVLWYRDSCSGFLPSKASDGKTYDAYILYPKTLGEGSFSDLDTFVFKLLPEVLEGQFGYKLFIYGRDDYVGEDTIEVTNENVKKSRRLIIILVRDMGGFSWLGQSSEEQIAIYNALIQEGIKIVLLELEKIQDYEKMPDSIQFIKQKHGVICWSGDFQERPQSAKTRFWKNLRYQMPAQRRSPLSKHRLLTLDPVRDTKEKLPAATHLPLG
Test: historical value, unlabeled IL-1 alpha displacing [125I]IL-1 alpha on mouse Swiss/3T3 cells
Method: Maximum total binding and nonspecific binding were determined each time each assay was run. Nonspecific binding was defined as the proportion of total binding not displaced by unlabeled ligand specific for the receptor. Specific binding was defined as the proportion of total binding that was displaced by unlabeled ligand.

IC50: 0.031 nM | Ki: 0.023 nM
B1: Interleukin-1α (ligand, UniProt P01583 113-271, looked up)
chain: SAPFSFLSNVKYNFMRIIKYEFILNDALNQSIIRANDQYLTAAALHNLDEAVKFDMGAYKSSKDDAKITVILRISKTQLYVTAQDEDQPVLLKEMPEIPKTITGSETNLLFFWETHGTKNYFTSVAHPNLFIATKQDYWVCLAGGPPSITDFQILENQA
modifications: 125I label on the radioligand
notes: also called IL-1 alpha; [125I]IL-1 alpha
